Laboratory results reported in ChEMBL document CHEMBL6083281, “Development of a Fluorescence Probe for High-Throughput Screening of Allosteric Inhibitors Targeting TRAP1” (J Med Chem, 2024).

Key:
[1] = biological target: T1, Heat shock protein 75 kDa, mitochondrial (Homo sapiens) (UniProt Q12931); test: Inhibition of TRAP1 in human HeLa cells assessed as increase in SDHB degradation at 2 uM incubated for 12 hrs by Western blot analysis; type: cell-based
T1 sequence (whole entry): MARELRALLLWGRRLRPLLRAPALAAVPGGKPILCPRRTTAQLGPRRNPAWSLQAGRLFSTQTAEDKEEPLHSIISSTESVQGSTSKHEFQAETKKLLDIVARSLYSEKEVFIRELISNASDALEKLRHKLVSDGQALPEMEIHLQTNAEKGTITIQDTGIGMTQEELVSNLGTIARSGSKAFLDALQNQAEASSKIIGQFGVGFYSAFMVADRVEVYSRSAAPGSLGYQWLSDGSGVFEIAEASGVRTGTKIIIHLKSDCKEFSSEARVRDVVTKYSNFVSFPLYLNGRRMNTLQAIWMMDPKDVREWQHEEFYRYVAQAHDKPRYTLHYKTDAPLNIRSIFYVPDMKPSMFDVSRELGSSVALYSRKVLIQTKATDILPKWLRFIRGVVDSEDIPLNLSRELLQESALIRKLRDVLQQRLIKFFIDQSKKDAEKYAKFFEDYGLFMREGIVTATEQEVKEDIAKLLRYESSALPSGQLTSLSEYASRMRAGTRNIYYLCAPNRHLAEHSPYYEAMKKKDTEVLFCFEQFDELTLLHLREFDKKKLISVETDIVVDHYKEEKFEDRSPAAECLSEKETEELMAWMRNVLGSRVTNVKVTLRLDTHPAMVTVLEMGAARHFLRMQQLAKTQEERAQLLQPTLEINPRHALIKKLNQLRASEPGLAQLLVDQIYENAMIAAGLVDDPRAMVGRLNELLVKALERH

[2] = biological target: T1, Heat shock protein 75 kDa, mitochondrial (Homo sapiens); test: Inhibition of TRAP1 in human HeLa cells assessed as increase in SIRT3 degradation at 2 uM incubated for 12 hrs by Western blot analysis; type: cell-based
[3] = biological target: T1, Heat shock protein 75 kDa, mitochondrial (Homo sapiens); test: Inhibition of TRAP1 in human HeLa cells assessed as upregulation of phospho-AMPK expression at 2 uM incubated for 12 hrs by Western blot analysis; type: cell-based
[4] = biological target: T1, Heat shock protein 75 kDa, mitochondrial (Homo sapiens); test: Inhibition of TRAP1 in human HeLa cells assessed as upregulation of phospho-CHOP expression at 2 uM incubated for 12 hrs by Western blot analysis; type: cell-based
[5] = biological target: T1, Heat shock protein 75 kDa, mitochondrial (Homo sapiens); test: Inhibition of TRAP1 in human 22Rv1 cells assessed as increase in SDHB degradation at 2 uM incubated for 12 hrs by Western blot analysis; type: cell-based
[6] = biological target: T1, Heat shock protein 75 kDa, mitochondrial (Homo sapiens); test: Inhibition of TRAP1 in human 22Rv1 cells assessed as increase in SIRT3 degradation at 2 uM incubated for 12 hrs by Western blot analysis; type: cell-based
[7] = biological target: T1, Heat shock protein 75 kDa, mitochondrial (Homo sapiens); test: Inhibition of TRAP1 in human 22Rv1 cells assessed as upregulation of phospho-AMPK expression at 2 uM incubated for 12 hrs by Western blot analysis; type: cell-based
[8] = biological target: T1, Heat shock protein 75 kDa, mitochondrial (Homo sapiens); test: Inhibition of TRAP1 in human 22Rv1 cells assessed as upregulation of phospho-CHOP expression at 2 uM incubated for 12 hrs by Western blot analysis; type: cell-based
HeLa [9] = test: Induction of cell death in human HeLa cells assessed as increase in caspase-3 activation at 2 uM incubated for 12 hrs by Western blot analysis; type: functional, cell-based
CWR22R [10] = test: Induction of cell death in human 22Rv1 cells assessed as increase in caspase-3 activation at 2 uM incubated for 12 hrs by Western blot analysis; type: functional, cell-based
HeLa [11] = test: Effect on p53 protein level in human HeLa cells at 2 uM incubated for 12 hrs by Western blot analysis; type: functional, cell-based
HeLa [12] = test: Effect on PCNA protein level in human HeLa cells at 2 uM incubated for 12 hrs by Western blot analysis; type: functional, cell-based
CWR22R [13] = test: Effect on p53 protein level in human 22Rv1 cells at 2 uM incubated for 12 hrs by Western blot analysis; type: functional, cell-based
CWR22R [14] = test: Effect on PCNA protein level in human 22Rv1 cells at 2 uM incubated for 12 hrs by Western blot analysis; type: functional, cell-based
[15] = biological target: T1, Heat shock protein 75 kDa, mitochondrial (Homo sapiens); test: Binding affinity to N-terminal 6Hits-tagged/TEV-fused human wildtype TRAP1 extracted from Escherichia coli BL21 (DE3) cells at 100 nM incubated for 2 hrs by fluorescence polarization assay
Mitochondrial membrane [16] = test: Induction of mitochondrial membrane depolarization in human HeLa cells at 2 uM incubated for 12 hrs by TMRM staining based flow cytometric analysis; type: cell membranes
Mitochondrial membrane [17] = test: Induction of mitochondrial membrane depolarization in human 22Rv1 cells at 2 uM incubated for 12 hrs by TMRM staining based flow cytometric analysis; type: cell membranes
HeLa [18] = test: Induction of ROS production in human HeLa cells at 2 uM incubated for 12 hrs by Mito-SOX staining based flow cytometric analysis; type: functional, cell-based
CWR22R [19] = test: Induction of ROS production in human 22Rv1 cells at 2 uM incubated for 12 hrs by Mito-SOX staining based flow cytometric analysis; type: functional, cell-based
[20] = biological target: T1, Heat shock protein 75 kDa, mitochondrial (Homo sapiens); test: Binding affinity to GST-tagged TRAP1 (unknown origin) transfected in human 22Rv1 cell mitochondria at 10 to 50 uM incubated overnight by pull-down assay based Western blotting; conditions: dose 10-50 µM
[21] = biological target: T1, Heat shock protein 75 kDa, mitochondrial (Homo sapiens); test: Inhibition of TRAP1 (unknown origin)-mediated SIRT3 activation assessed as reduction in SIRT3 deacetylase activity at 2 to 10 uM incubated for 30 mins by fluorescence based analysis; conditions: dose 2-10 µM
[22] = test system: T2, Heat shock protein 75 kDa, mitochondrial (Homo sapiens), Q12931 [F353A/F531A]; test: Binding affinity to recombinant TRAP1 F353A/F531A mutant (unknown origin) at 5 uM incubated for 2 hrs by fluorescence based microplate reader
T2 sequence (whole entry): T1 sequence (whole entry) with F353A, F531A

[23] = biological target: T1, Heat shock protein 75 kDa, mitochondrial (Homo sapiens); test: Binding affinity to recombinant TRAP1 at client binding site (unknown origin) at 5 uM incubated for 2 hrs in presence of MitoQ by fluorescence based direct binding assay

SMILES	inhibition [1]	inhibition [2]	inhibition [3]	inhibition [4]	inhibition [5]	inhibition [6]	inhibition [7]	inhibition [8]	Activity [22]	Activity [23]	Activity (HeLa [9])	Activity (CWR22R [10])	Activity (HeLa [11])	Activity (HeLa [12])	Activity (CWR22R [13])	Activity (CWR22R [14])	other results
C[P+](CCCCCCNC(=O)c1cc2cc3c4c(c2oc1=O)CCCN4CCC3)(c1ccccc1)c1ccccc1	–	–	–	–	–	–	–	–	–	–	–	–	–	–	–	–	Activity [15]: inactive
CN(CCCCCCCC[P+](c1ccccc1)(c1ccccc1)c1ccccc1)C(=O)c1ccccc1C1=c2cc3c4c(c2Oc2c1cc1c5c2CCCN5CCC1)CCC[N+]=4CCC3	Active	Active	Active	Active	Active	Active	Active	Active	inactive	inactive	–	–	–	–	–	–	–
CN(CCCCCC[P+](c1ccccc1)(c1ccccc1)c1ccccc1)C(=O)c1ccccc1C1=c2cc3c4c(c2Oc2c1cc1c5c2CCCN5CCC1)CCC[N+]=4CCC3	–	–	–	–	–	–	–	–	inactive	inactive	–	–	–	–	–	–	–
C[P+](C)(CCCCCCNC(=O)c1cc2cc3c4c(c2oc1=O)CCCN4CCC3)c1ccccc1	–	–	–	–	–	–	–	–	–	–	–	–	–	–	–	–	Activity [15]: inactive

Now from value to compound, other results behind:

inhibition [1]	inhibition [2]	inhibition [3]	inhibition [4]	inhibition [5]	inhibition [6]	inhibition [7]	inhibition [8]	Activity [22]	Activity [23]	SMILES	Activity (HeLa [9])	Activity (CWR22R [10])	Activity (HeLa [11])	Activity (HeLa [12])	Activity (CWR22R [13])	Activity (CWR22R [14])	other results
Active	Active	Active	Active	Active	Active	Active	Active	–	–	O=C(CCCCCCCCCC[P+](c1ccccc1)(c1ccccc1)c1ccccc1)Nc1nccs1	Active	Active	inactive	inactive	inactive	inactive	–
Active	Active	Active	Active	Active	Active	Active	Active	–	–	CN(C)CCOc1ccc(/C(=C(/CCCCCCCCCC[P+](c2ccccc2)(c2ccccc2)c2ccccc2)c2ccccc2)c2ccccc2)cc1	Active	Active	inactive	inactive	inactive	inactive	Activity (Mitochondrial membrane [16]): Active; Activity (Mitochondrial membrane [17]): Active; Activity (HeLa [18]): Active; Activity (CWR22R [19]): Active; Activity [20]: Active; Compound Effectively Competes With Trap1 Clients Such As Sirt3 And Sdhb Compared To Mitoq; inhibition [21]: Active; Compared To Mitoq
–	–	–	–	–	–	–	–	inactive	inactive	CCN(CC)c1ccc2c(-c3ccccc3C(=O)N(C)CCCCCCCC[P+](c3ccccc3)(c3ccccc3)c3ccccc3)c3ccc(=[N+](CC)CC)cc-3oc2c1	–	–	–	–	–	–	–
Active	Active	Active	Active	Active	Active	Active	Active	–	–	CC(C)(C)[Si](C)(C)O[C@H]1CC[C@]2(C)[C@H]1[C@H]2CCC[P+](c1ccccc1)(c1ccccc1)c1ccccc1	Active	Active	inactive	inactive	inactive	inactive	–

Substitutions are numbered along the chain they refer to. Calls of active or inactive are those of the source. The rule behind the calls is not given here.
